Assay results published in patent US9187441B2, “p53-Mdm2 antagonists” (University of Pittsburgh—Of the Commonwealth System of …, priority 2010, dated 2015).

Protein sequences, listed by entry. Tags and fused reporters are not part of them.
UniProt Q00987, whole entry: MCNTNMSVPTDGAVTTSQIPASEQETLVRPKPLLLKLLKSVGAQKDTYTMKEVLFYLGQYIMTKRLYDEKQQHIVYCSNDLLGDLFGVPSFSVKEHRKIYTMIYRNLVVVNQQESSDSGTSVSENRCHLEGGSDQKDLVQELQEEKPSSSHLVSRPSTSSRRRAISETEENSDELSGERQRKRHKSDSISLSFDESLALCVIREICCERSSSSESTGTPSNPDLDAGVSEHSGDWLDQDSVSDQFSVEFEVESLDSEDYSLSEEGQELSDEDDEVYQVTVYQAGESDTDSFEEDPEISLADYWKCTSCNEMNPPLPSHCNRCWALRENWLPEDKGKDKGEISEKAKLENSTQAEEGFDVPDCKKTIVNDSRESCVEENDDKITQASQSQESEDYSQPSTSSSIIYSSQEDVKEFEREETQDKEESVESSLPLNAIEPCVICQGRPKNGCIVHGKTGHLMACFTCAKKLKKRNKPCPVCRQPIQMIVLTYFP

Biological target: Mdm2 (Homo sapiens (Human), UniProt Q00987)
Experiment: Fluorescence polarization (FP) competition binding assay with Mdm2
Details: Table 8, Formula II compounds, measured by FP

Q: Which Ki does the source give for `CC(C)CC(NC(C(=O)NCc1ccccc1)c1c(C(=O)O)[nH]c2cc(Cl)ccc12)C(=O)N1CCOCC1` (stereo not shown) here?
A: 2000 nM
